Laboratory results from patent US20200317660A1, “Quinazolinone Compound and Application Thereof” (LUOXIN PHARMACEUTICAL (SHANGHAI) CO., LTD., priority 2017, published 2020).

The chains behind the UniProt entries cited, without tags or fusion partners. Where a name states a change or a piece, a line headed by the entry shows the natural chain unless it says otherwise.
UniProt P42336, whole entry: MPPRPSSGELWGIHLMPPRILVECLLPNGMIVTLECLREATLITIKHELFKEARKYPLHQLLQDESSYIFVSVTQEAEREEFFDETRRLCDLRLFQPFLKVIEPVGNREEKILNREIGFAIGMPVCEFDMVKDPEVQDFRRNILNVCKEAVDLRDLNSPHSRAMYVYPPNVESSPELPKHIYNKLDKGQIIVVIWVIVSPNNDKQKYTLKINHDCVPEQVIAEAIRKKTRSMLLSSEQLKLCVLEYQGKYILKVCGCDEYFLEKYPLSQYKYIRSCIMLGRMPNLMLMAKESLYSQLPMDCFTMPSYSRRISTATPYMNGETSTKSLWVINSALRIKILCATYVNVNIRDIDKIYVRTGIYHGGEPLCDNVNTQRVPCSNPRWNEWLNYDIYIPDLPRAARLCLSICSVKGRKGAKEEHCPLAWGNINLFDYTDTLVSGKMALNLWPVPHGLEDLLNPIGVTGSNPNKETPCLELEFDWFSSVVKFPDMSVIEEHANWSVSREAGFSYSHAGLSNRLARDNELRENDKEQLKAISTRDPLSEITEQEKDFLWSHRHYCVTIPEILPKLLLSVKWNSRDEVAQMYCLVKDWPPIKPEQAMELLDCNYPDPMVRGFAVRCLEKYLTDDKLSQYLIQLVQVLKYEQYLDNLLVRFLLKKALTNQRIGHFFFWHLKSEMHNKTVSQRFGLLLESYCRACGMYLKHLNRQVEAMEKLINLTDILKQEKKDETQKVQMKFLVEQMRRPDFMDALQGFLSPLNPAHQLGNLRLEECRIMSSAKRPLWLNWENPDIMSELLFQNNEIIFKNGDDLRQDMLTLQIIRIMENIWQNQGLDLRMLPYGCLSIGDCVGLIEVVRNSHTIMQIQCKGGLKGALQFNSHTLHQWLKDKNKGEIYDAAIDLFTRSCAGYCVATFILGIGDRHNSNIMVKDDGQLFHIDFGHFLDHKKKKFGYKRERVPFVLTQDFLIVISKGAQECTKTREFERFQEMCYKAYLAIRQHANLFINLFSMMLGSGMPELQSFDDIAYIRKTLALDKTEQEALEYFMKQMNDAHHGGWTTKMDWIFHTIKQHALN
UniProt P42338, whole entry: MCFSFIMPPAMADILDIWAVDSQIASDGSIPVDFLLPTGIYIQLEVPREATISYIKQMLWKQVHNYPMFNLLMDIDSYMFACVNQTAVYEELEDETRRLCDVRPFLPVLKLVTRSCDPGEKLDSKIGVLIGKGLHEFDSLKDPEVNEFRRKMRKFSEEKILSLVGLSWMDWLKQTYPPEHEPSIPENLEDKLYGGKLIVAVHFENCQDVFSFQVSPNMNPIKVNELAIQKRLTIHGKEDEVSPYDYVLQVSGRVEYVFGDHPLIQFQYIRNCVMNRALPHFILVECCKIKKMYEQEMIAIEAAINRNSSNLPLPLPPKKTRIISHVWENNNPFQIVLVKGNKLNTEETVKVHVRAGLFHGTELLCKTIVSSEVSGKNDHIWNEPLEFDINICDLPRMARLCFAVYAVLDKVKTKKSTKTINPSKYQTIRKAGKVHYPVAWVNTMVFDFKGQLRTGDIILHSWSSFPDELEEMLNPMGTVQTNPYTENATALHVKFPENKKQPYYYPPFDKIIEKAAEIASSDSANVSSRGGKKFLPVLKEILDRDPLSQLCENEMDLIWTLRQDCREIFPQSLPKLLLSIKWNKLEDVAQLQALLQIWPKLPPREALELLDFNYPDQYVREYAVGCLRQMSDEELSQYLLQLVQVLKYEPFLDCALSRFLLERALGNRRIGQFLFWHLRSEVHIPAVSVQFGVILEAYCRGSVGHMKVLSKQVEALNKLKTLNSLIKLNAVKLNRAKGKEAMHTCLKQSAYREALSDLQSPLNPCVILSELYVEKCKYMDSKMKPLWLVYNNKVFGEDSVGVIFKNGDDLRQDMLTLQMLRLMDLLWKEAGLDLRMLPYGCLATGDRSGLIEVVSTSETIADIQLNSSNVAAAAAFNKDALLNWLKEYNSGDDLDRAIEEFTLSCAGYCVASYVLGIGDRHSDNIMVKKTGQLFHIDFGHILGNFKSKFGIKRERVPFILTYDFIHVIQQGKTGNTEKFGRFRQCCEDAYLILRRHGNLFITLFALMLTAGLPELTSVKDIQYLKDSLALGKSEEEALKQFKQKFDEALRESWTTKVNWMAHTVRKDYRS
UniProt O00329, whole entry: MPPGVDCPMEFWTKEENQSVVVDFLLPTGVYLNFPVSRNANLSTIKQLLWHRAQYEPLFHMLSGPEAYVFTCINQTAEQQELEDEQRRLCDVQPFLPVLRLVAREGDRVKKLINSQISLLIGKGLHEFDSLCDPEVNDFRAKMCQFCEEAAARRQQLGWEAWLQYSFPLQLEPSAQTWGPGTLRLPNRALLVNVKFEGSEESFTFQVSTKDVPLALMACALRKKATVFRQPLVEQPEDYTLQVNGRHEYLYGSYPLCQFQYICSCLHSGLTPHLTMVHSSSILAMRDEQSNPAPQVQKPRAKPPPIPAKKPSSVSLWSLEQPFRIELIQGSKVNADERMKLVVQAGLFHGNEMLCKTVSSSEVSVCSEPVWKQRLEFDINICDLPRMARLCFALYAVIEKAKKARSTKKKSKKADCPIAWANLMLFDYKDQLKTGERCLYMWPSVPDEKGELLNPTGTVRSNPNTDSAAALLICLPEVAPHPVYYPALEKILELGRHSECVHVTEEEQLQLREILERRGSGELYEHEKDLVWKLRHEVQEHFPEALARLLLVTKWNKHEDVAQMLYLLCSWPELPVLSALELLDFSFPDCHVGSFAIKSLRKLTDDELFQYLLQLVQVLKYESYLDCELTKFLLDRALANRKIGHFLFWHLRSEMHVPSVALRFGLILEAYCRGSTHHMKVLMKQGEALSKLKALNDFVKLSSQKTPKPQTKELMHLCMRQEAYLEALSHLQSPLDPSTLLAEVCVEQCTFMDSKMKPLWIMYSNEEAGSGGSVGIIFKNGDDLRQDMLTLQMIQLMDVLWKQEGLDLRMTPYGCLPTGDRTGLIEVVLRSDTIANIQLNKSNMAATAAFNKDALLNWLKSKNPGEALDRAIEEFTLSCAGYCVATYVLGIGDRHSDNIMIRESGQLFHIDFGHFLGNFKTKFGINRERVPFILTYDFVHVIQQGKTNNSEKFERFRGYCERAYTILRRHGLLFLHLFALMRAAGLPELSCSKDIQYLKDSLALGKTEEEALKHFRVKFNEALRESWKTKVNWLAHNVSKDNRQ
UniProt P48736, whole entry: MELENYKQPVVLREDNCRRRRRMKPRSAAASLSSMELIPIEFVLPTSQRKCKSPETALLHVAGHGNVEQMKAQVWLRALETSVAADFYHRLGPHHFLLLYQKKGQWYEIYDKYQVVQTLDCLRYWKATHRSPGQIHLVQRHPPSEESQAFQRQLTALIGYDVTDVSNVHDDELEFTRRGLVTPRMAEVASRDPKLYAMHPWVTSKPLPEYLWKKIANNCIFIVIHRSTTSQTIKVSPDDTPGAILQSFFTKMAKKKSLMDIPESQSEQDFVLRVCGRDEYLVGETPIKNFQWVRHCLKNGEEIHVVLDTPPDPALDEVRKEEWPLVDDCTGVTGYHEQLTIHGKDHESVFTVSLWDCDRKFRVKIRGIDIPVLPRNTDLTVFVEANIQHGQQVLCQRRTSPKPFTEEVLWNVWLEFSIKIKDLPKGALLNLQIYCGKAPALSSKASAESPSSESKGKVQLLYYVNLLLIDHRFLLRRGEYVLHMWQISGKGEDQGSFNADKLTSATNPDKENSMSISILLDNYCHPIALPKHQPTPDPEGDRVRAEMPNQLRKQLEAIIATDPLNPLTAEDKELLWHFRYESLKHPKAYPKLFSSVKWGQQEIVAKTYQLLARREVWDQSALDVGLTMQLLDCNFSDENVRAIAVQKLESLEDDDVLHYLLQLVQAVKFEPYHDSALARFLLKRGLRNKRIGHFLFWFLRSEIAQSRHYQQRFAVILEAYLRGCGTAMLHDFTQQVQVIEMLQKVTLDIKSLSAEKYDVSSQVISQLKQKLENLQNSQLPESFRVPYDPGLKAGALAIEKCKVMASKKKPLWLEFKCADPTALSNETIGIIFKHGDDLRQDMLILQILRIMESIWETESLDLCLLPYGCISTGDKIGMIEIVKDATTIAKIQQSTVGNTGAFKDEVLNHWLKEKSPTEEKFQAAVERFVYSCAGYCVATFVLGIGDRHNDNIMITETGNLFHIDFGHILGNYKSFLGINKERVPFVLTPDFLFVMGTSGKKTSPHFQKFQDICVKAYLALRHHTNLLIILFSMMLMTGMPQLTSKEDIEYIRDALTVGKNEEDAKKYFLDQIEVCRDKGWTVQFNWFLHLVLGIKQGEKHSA
UniProt P27986, whole entry partner: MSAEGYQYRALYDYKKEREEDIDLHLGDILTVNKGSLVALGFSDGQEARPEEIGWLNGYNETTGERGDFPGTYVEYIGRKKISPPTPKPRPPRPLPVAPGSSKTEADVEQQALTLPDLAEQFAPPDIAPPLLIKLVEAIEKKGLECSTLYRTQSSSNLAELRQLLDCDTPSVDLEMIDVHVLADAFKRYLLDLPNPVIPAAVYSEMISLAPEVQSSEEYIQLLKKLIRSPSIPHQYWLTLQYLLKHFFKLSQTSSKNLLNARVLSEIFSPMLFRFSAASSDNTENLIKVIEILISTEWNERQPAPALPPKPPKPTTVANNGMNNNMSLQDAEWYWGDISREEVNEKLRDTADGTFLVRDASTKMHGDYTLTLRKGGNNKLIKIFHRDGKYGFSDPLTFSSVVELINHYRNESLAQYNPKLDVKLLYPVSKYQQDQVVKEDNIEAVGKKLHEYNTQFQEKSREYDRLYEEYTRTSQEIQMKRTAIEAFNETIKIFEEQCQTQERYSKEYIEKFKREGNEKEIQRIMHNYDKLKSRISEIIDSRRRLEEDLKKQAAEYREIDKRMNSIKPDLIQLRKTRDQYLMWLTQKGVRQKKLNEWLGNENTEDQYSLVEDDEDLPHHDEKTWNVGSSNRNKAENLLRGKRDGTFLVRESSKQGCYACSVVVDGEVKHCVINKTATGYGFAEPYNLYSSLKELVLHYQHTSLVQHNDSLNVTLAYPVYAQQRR

What was measured:
PI3Kα = PI3Kα (Homo sapiens, UniProt P42336); assay: In vitro test of enzyme activity (ADP-Glo lipokinase), PI3K alpha; details: read-out: PI3Kα IC50, 40 μM ATP, 50 μM PIP2:3PS, 120 min
PI3Kβ = PI3Kβ (Homo sapiens, UniProt P42338); assay: In vitro test of enzyme activity (ADP-Glo lipokinase), PI3K beta; details: read-out: PI3Kβ IC50, 40 μM ATP, 50 μM PIP2:3PS, 120 min
PI3Kδ = PI3Kδ (Homo sapiens, UniProt O00329); assay: In vitro test of enzyme activity (ADP-Glo lipokinase), PI3K delta; details: read-out: PI3Kδ IC50, 40 μM ATP, 50 μM PIP2:3PS, 120 min
PI3Kγ = PI3Kγ (Homo sapiens, UniProt P48736); assay: In vitro test of enzyme activity (ADP-Glo lipokinase), PI3K gamma; details: read-out: PI3Kγ IC50, 25 μM ATP, 50 μM PIP2:3PS, 120 min
[1] = system: phosphorylation of PI3K downstream protein Akt in MCF7 cells; assay: In vitro test of cells activity: ELISA of Akt phosphorylation in MCF7 cells; details: read-out: MCF7 Cell IC50, 2 h compound, insulin 10 μg/mL stimulation, pAkt ELISA
[2] = In vivo DMPK study in mice after a single administration; design: species or system female Balb/c mice; details: for Cmax / Oral DNAUC (area under the dose normalization curve): oral; for Cl (clearance rate) / Intravenous injection T1/2 / Vd (apparent volume of distribution): intravenous 1 mg/kg; for F % (oral bioavailability): oral 10 mpk vs intravenous 1 mg/kg

CNC(=O)C(C)Cn1cnc2ccc(-c3cnc(OC)c(NS(=O)(=O)c4c(C)noc4C)c3)cc2c1=O (single isomer, unassigned) [WX093] showed an IC50 (PI3Kα) of 4.27 nM, an IC50 (PI3Kβ) of 624 nM and an IC50 (PI3Kδ) of 19.3 nM. For the same compound, the IC50 (PI3Kγ) was 42.9 nM and the IC50 [1] was 226 nM.
In the case of Cc1nc(C)c(S(=O)(=O)Nc2cc(-c3ccc4ncn([C@H]5C[C@@H](C(=O)N6CCCC6)C5)c(=O)c4c3)cnc2C)s1, the IC50 (PI3Kα) is reported as 2.81 nM, the IC50 (PI3Kβ) is reported as 325 nM and the IC50 (PI3Kδ) is reported as 1.35 nM. For the same compound, the IC50 (PI3Kγ) was 70.2 nM and the IC50 [1] was 116 nM.
CNC(=O)C(C)Cn1cnc2ccc(-c3cnc(OC)c(NS(=O)(=O)c4cccc(Cl)c4C)c3)cc2c1=O (single isomer, unassigned) [WX139] gave an IC50 (PI3Kα) of 3.3 nM, an IC50 (PI3Kβ) of 584 nM and an IC50 [1] of 10.7 nM. For the same compound, the Cmax ([2]; 10 mpk) was 10.1 µM and the “Oral DNAUC (area under the dose normalization curve)” value ([2]; 10 mpk) was 1118 nM · h/mpk.
In the case of CNC(=O)C(C)Cn1cnc2ccc(-c3cnc(OC)c(NS(=O)(=O)c4cc(F)ccc4F)c3)cc2c1=O (single isomer, unassigned) [WX224], the IC50 (PI3Kα) is reported as 3.08 nM, the IC50 (PI3Kβ) is reported as 326 nM and the IC50 (PI3Kδ) is reported as 22 nM. It also gave an IC50 (PI3Kγ) of 23.7 nM and an IC50 [1] of 43.5 nM.
COc1ncc(-c2ccc3ncn(CC(C)C(=O)NC(C)C)c(=O)c3c2)cc1NS(=O)(=O)c1ccc(F)cc1Cl (single isomer, unassigned) [WX078] showed an IC50 (PI3Kα) of 6.94 nM, an IC50 (PI3Kβ) of 1700 nM and an IC50 (PI3Kδ) of 15 nM. The IC50 (PI3Kγ) was 29.5 nM, the Cmax ([2]; 2 mpk) was 2.92 µM and the “Oral DNAUC (area under the dose normalization curve)” value ([2]; 2 mpk) was 787 nM · h/mpk.
Compound Cc1nc(C)c(S(=O)(=O)Nc2cc(-c3ccc4ncn([C@H]5C[C@H](C(=O)NC(C)C)C5)c(=O)c4c3)cnc2C)s1 has an IC50 (PI3Kα) of 0.69 nM, an IC50 (PI3Kβ) of 124 nM and an IC50 (PI3Kδ) of 1.53 nM. For the same compound, the IC50 (PI3Kγ) was 9.9 nM and the IC50 [1] was 180 nM.
With CNC(=O)C(C)Cn1cnc2ccc(-c3cnc(OC)c(NS(=O)(=O)c4cccc(F)c4C)c3)cc2c1=O (single isomer, unassigned) [WX216] the IC50 (PI3Kα) was 2.58 nM, the IC50 (PI3Kβ) was 440 nM and the IC50 (PI3Kδ) was 38.6 nM. The IC50 (PI3Kγ) was 34.6 nM and the IC50 [1] was 48.5 nM.
For CNC(=O)C(C)Cn1cnc2ccc(-c3cnc(OC)c(NS(=O)(=O)c4cc(C)cc(C)c4)c3)cc2c1=O (single isomer, unassigned) [WX145], the IC50 (PI3Kα) was 8.68 nM, the IC50 (PI3Kβ) was 1060 nM and the IC50 (PI3Kδ) was 75 nM. It also gave an IC50 (PI3Kγ) of 140 nM and an IC50 [1] of 9.06 nM.
CNC(=O)C(C)Cn1cnc2ccc(-c3cnc(OC)c(NS(=O)(=O)c4ccc(C(F)(F)F)cc4Cl)c3)cc2c1=O (single isomer, unassigned) [WX212] gave an IC50 (PI3Kα) of 1.76 nM, an IC50 (PI3Kβ) of 253 nM and an IC50 (PI3Kδ) of 9.22 nM. For the same compound, the IC50 (PI3Kγ) was 27.7 nM and the IC50 [1] was 28 nM.
With CNC(=O)C(C)Cn1cnc2ccc(-c3cnc(OC)c(NS(=O)(=O)c4cccc(C(F)(F)F)c4)c3)cc2c1=O (single isomer, unassigned) [WX097] the IC50 (PI3Kα) was 4.37 nM, the IC50 (PI3Kβ) was 678 nM and the IC50 (PI3Kδ) was 25.3 nM. The IC50 (PI3Kγ) was 45.6 nM, the Cmax ([2]; 10 mpk) was 24.7 µM and the “Oral DNAUC (area under the dose normalization curve)” value ([2]; 10 mpk) was 2018 nM · h/mpk.
Work on CNC(=O)C(C)Cn1cnc2ccc(-c3cnc(OC)c(NS(=O)(=O)c4cc(Cl)cc(Cl)c4)c3)cc2c1=O (single isomer, unassigned) [WX228] yielded an IC50 (PI3Kα) of 2.7 nM, an IC50 (PI3Kβ) of 393 nM and an IC50 (PI3Kδ) of 70.5 nM. The IC50 (PI3Kγ) was 58.2 nM and the IC50 [1] was 6.14 nM.
COc1ncc(-c2ccc3ncn(CCCC(=O)NC(C)C)c(=O)c3c2)cc1NS(=O)(=O)c1ccc(F)cc1Cl showed an IC50 (PI3Kα) of 1.49 nM, an IC50 (PI3Kβ) of 112 nM and an IC50 (PI3Kδ) of 3.55 nM. For the same compound, the IC50 (PI3Kγ) was 11.8 nM and the IC50 [1] was 13.1 nM.
For CNC(=O)C(C)Cn1cnc2ccc(-c3cnc(OC)c(NS(=O)(=O)c4ccc(Cl)cc4Cl)c3)cc2c1=O (single isomer, unassigned) [WX153], the IC50 (PI3Kα) was 2.12 nM, the IC50 (PI3Kβ) was 278 nM and the IC50 (PI3Kδ) was 11.4 nM. For the same compound, the IC50 (PI3Kγ) was 23 nM, the Cmax ([2]; 10 mpk) was 37 µM and the “Oral DNAUC (area under the dose normalization curve)” value ([2]; 10 mpk) was 6560 nM · h/mpk.
CNC(=O)C(COC)Cn1cnc2ccc(-c3cnc(OC)c(NS(=O)(=O)c4ccc(F)cc4Cl)c3)cc2c1=O (single isomer, unassigned) gave an IC50 (PI3Kα) of 21.5 nM, an IC50 (PI3Kβ) of 318 nM and an IC50 [1] of 92.8 nM.
With CNC(=O)C(C)Cn1cnc2ccc(-c3cnc(OC)c(NS(=O)(=O)c4ccc(F)cc4Cl)c3)cc2c1=O (single isomer, unassigned) [WX030] the IC50 (PI3Kα) was 2.34 nM, the IC50 (PI3Kβ) was 89.7 nM and the IC50 (PI3Kδ) was 9.95 nM. For the same compound, the IC50 (PI3Kγ) was 11.5 nM and the IC50 [1] was 59.3 nM.
For CCNC(=O)C(C)Cn1cnc2ccc(-c3cnc(OC)c(NS(=O)(=O)c4ccc(F)cc4Cl)c3)cc2c1=O (single isomer, unassigned) [WX060], the IC50 (PI3Kα) was 3.49 nM, the IC50 (PI3Kβ) was 653 nM and the IC50 (PI3Kδ) was 19.6 nM. For the same compound, the IC50 (PI3Kγ) was 21.9 nM, the “Cl (clearance rate)” value [2] was 12.8 mL/min/kg and the “Intravenous injection T1/2” value [2] was 16.7 min. The “Vd (apparent volume of distribution)” value [2] was 0.222 L/kg, the “F % (oral bioavailability)” value [2] was 30.7% and the Cmax ([2]; 10 mpk) was 9.13 µM. The “Oral DNAUC (area under the dose normalization curve)” value ([2]; 10 mpk) was 695 nM · h/mpk.
For CNC(=O)C(C)Cn1cnc2ccc(-c3cnc(OC)c(NS(=O)(=O)c4ccc(C(F)(F)F)cc4)c3)cc2c1=O (single isomer, unassigned) [WX149], the IC50 (PI3Kα) was 4.78 nM, the IC50 (PI3Kβ) was 559 nM and the IC50 (PI3Kδ) was 19.8 nM. For the same compound, the IC50 (PI3Kγ) was 64.1 nM and the IC50 [1] was 26.7 nM.
CCOc1ncc(-c2ccc3ncn(CC(C)C(=O)NC)c(=O)c3c2)cc1NS(=O)(=O)c1ccc(F)cc1Cl (single isomer, unassigned) [WX158] gave an IC50 (PI3Kα) of 23.7 nM, an IC50 (PI3Kβ) of 1120 nM and an IC50 [1] of 154 nM.
In the case of CNC(=O)C(C)Cn1cnc2ccc(-c3cnc(OC)c(NS(=O)(=O)c4cc(F)ccc4C)c3)cc2c1=O (single isomer, unassigned) [WX226], the IC50 (PI3Kα) is reported as 2.52 nM, the IC50 (PI3Kβ) is reported as 283 nM and the IC50 [1] is reported as 44.3 nM.
For CNC(=O)C(C)Cn1cnc2ccc(-c3cnc(OC)c(NS(=O)(=O)c4ccc(F)c(C(F)(F)F)c4)c3)cc2c1=O (single isomer, unassigned) [WX229], the IC50 (PI3Kα) was 11.5 nM, the IC50 (PI3Kβ) was 1170 nM and the IC50 (PI3Kδ) was 57.6 nM. For the same compound, the IC50 (PI3Kγ) was 142 nM and the IC50 [1] was 110 nM.
Compound CNC(=O)C(C)Cn1cnc2ccc(-c3cnc(OC)c(NS(=O)(=O)c4cccc(Cl)c4Cl)c3)cc2c1=O (single isomer, unassigned) [WX151] has an IC50 (PI3Kα) of 1.07 nM, an IC50 (PI3Kβ) of 187 nM and an IC50 (PI3Kδ) of 12.4 nM. The IC50 (PI3Kγ) was 9.49 nM, the Cmax ([2]; 10 mpk) was 24 µM and the “Oral DNAUC (area under the dose normalization curve)” value ([2]; 10 mpk) was 5704 nM · h/mpk.
CNC(=O)C(C)Cn1cnc2ccc(-c3cnc(OC)c(NS(=O)(=O)c4sc(C)nc4C)c3)cc2c1=O (single isomer, unassigned) [WX068] showed an IC50 (PI3Kα) of 0.47 nM, an IC50 (PI3Kβ) of 54 nM and an IC50 (PI3Kδ) of 0.98 nM. For the same compound, the IC50 (PI3Kγ) was 5.49 nM, the “Cl (clearance rate)” value [2] was 5.49 mL/min/kg and the “Intravenous injection T1/2” value [2] was 138 min. The “Vd (apparent volume of distribution)” value [2] was 0.229 L/kg, the “F % (oral bioavailability)” value [2] was 18.4% and the Cmax ([2]; 10 mpk) was 10.6 µM. For the same compound, the “Oral DNAUC (area under the dose normalization curve)” value ([2]; 10 mpk) was 1021 nM · h/mpk.
With Cc1nc(C)c(S(=O)(=O)Nc2cc(-c3ccc4ncn([C@H]5C[C@H](C(=O)N6CCCC6)C5)c(=O)c4c3)cnc2C)s1 the IC50 (PI3Kα) was 0.42 nM, the IC50 (PI3Kβ) was 161 nM and the IC50 (PI3Kδ) was 1.27 nM. For the same compound, the IC50 (PI3Kγ) was 8.27 nM and the IC50 [1] was 152 nM.
In the case of COc1ncc(-c2ccc3ncn(CC(C)C(N)=O)c(=O)c3c2)cc1NS(=O)(=O)c1ccc(F)cc1Cl (single isomer, unassigned) [WX018], the IC50 (PI3Kα) is reported as 2.02 nM, the IC50 (PI3Kβ) is reported as 168 nM and the IC50 (PI3Kδ) is reported as 10.2 nM. The IC50 (PI3Kγ) was 14.9 nM, the “Cl (clearance rate)” value [2] was 9.80 mL/min/kg and the “Intravenous injection T1/2” value [2] was 55.1 min. For the same compound, the “Vd (apparent volume of distribution)” value [2] was 0.529 L/kg, the “F % (oral bioavailability)” value [2] was 50.3% and the “Oral DNAUC (area under the dose normalization curve)” value ([2]; 10 mpk, 10 mg/kg) was 1599 nM · h/mpk.
